Calls of active or inactive are those of the source. No cut-off for these calls is given here.
What was measured:
[1] = target: Mu-type opioid receptor (Homo sapiens) (UniProt P35372); test: Displacement of [3H]DAMGO from human mu opioid receptor expressed in HEK293 cell membrane assessed as inhibition of radioligand binding at 100 nM incubated for 120 mins by competition binding based scintillation counter analysis relative to control
[2] = target: Mu-type opioid receptor (Homo sapiens) (UniProt P35372); test: Displacement of [3H]DAMGO from human mu opioid receptor expressed in HEK293 cell membrane assessed as inhibition of radioligand binding at 30 nM incubated for 120 mins by competition binding based scintillation counter analysis relative to control
Mus musculus [3] = test: Analgesic activity in thermal stimulated CD-1 mouse assessed as increase in latency to pain response at SC administration measured after 30 mins by tail flick assay
Mus musculus [4] = test: Analgesic activity in thermal stimulated CD-1 mouse assessed as increase in latency to pain response at po administration measured after 30 mins by tail flick assay
Mus musculus [5] = test: Analgesic activity in thermal stimulated CD-1 mouse assessed as increase in latency to pain response at 3 mg/kg,SC administration once daily for 14 days by tail flick assay; conditions: time 14.0 day
Mus musculus [6] = test: Analgesic activity in thermal stimulated CD-1 mouse assessed as increase in latency to pain response at 0.3 mg/kg,SC administration once daily for 14 days by tail flick assay; conditions: time 14.0 day
Mus musculus [7] = test: Analgesic activity in naloxone induced CD-1 mouse assessed as increase in latency to pain response at 1 to 10 mg/kg,po administration measured after 30 mins by tail flick assay; conditions: dose 1-10 mg/kg
Mus musculus [8] = test: Analgesic activity in thermal stimulated CD-1 mouse assessed as increase in latency to pain response at 0.1 to 1 mg/kg,SC administration once daily for 14 days by tail flick assay; conditions: dose 0.1-1 mg/kg, time 14.0 day
Mus musculus [9] = test: Analgesic activity in thermal stimulated CD-1 mouse assessed as increase in latency to pain response at 0.1 to 1 mg/kg,SC administration measured after 30 mins on day 15 by tail flick assay; conditions: dose 0.1-1 mg/kg
Mus musculus [10] = organism: Mus musculus; test: Analgesic activity against formalin-induced inflammatory pain C57Bl/6 mouse model assessed as reduction in licking response at SC pretreated for 30 min followed by formalin challenge and measured after 30 mins; conditions: time 60.0 min
[11] = target: Mu-type opioid receptor (Homo sapiens) (UniProt P35372); test: Partial agonist activity at recombinant human mu opioid receptor expressed in CHO-K1 cells assessed as inhibition of forskolin induced cAMP production by measuring maximal efficacy by whole cell-based assay relative to control
[12] = target: Sodium-dependent serotonin transporter (Homo sapiens) (UniProt P31645); test: Displacement of [3H]-imipramine from human 5-HT transporter expressed in CHO cell membrane assessed as inhibition of radioligand binding at 100 nM incubated for 60 mins by competition binding based scintillation counter analysis relative to control; type: cell membranes
[13] = target: 5-hydroxytryptamine receptor 2A (Homo sapiens) (UniProt P28223); test: Displacement of [125I]DOI from human 5-HT2A receptor expressed in HEK293 cell membrane assessed as inhibition of radioligand binding at 100 nM incubated for 60 mins by competition binding based scintillation counter analysis relative to control; type: cell membranes; conditions: filed as antagonist
[14] = target: D(2) dopamine receptor (Homo sapiens) (UniProt P14416); test: Displacement of [3H]7-OH-DPAT from human dopamine D2 receptor expressed in HEK293 cell membrane assessed as inhibition of radioligand binding at 100 nM incubated for 60 mins by competition binding based scintillation counter analysis relative to control; type: cell membranes
[15] = target: D(1A) dopamine receptor (Homo sapiens) (UniProt P21728); test: Displacement of [3H]SCH-23390 from human dopamine D1 receptor expressed in CHO cell membrane assessed as inhibition of radioligand binding at 100 nM incubated for 60 mins by competition binding based scintillation counter analysis relative to control; type: cell membranes

By UniProt entry, the sequences of proteins in these tests, tags left out.
UniProt P35372, whole entry, looked up: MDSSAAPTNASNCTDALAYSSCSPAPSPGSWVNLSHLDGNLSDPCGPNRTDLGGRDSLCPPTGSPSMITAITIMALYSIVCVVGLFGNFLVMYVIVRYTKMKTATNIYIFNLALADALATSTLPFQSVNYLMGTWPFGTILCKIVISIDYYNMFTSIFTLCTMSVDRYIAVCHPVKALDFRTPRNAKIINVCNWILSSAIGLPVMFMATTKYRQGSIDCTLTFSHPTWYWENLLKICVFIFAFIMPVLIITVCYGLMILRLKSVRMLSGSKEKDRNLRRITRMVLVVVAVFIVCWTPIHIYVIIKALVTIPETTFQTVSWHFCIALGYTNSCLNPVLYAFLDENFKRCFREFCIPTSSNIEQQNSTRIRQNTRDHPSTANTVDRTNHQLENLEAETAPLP
UniProt P31645, whole entry, looked up: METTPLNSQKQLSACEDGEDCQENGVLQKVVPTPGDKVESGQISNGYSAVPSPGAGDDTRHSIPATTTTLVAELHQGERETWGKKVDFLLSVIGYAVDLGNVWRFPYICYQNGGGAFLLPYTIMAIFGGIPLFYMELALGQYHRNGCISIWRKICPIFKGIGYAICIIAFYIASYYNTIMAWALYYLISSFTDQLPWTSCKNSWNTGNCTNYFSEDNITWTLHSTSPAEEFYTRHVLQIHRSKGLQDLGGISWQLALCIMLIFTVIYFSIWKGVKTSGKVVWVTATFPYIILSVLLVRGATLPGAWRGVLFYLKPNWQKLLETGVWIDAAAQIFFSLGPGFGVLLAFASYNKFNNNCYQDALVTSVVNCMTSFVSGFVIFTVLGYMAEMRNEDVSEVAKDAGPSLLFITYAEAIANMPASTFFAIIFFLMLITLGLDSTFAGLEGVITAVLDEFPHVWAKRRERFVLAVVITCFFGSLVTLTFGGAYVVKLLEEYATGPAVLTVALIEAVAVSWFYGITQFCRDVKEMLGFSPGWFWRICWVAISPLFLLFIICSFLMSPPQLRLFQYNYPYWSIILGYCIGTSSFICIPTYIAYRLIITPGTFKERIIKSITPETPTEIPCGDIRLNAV
UniProt P28223, whole entry, looked up: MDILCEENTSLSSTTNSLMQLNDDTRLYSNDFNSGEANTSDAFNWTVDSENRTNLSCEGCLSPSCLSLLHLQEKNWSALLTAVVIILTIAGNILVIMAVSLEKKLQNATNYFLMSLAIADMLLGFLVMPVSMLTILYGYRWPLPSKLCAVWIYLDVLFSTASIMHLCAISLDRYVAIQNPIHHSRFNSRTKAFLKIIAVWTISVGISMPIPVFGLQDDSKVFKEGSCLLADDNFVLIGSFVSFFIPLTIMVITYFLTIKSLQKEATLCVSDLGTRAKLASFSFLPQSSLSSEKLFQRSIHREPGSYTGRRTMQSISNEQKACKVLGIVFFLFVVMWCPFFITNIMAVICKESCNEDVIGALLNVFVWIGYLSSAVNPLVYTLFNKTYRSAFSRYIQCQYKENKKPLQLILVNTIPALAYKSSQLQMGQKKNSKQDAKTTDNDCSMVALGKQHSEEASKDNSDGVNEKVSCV
UniProt P14416, whole entry, looked up: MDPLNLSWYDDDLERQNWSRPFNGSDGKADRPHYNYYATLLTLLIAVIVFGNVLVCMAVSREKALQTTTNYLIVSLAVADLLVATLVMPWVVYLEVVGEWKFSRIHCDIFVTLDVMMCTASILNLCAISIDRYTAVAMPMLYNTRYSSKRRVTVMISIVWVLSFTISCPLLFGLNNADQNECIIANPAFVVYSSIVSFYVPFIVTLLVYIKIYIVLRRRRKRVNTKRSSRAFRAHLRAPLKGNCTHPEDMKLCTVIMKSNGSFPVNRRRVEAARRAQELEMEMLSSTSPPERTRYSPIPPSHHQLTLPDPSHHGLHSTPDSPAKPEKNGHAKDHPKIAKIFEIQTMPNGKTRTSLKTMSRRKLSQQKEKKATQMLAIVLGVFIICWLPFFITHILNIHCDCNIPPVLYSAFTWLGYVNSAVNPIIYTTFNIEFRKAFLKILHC
UniProt P21728, whole entry, looked up: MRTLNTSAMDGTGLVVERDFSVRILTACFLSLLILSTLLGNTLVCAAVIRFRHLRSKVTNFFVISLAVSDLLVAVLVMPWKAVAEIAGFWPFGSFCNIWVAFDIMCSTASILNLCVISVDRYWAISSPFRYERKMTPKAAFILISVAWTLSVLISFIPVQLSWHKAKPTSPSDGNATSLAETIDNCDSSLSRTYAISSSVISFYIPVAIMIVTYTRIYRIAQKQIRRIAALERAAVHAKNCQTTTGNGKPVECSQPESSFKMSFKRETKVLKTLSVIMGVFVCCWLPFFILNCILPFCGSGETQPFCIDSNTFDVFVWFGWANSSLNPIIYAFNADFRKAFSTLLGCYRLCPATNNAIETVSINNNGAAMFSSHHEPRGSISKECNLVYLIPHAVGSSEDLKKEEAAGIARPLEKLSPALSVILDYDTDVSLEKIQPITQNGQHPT

Cc1cc(F)cc(C)c1OCCCN1CC[C@H]2[C@@H](C1)c1cccc3c1N2CC(=O)N3
inhibition ([1]; filed as partial agonist): 84%

O=C1CN2c3c(cccc3[C@@H]3CN(CCCNc4ccc(F)cc4)CC[C@@H]32)N1
inhibition ([1]; filed as partial agonist): 83%

O=C1CN2c3c(cccc3[C@@H]3CN(CCCOc4ccc5c(c4)OCO5)CC[C@@H]32)N1
inhibition [2]: 29%

O=C1CN2c3c(cccc3[C@@H]3CN(CCCOc4ccc(O)cc4)CC[C@@H]32)N1
inhibition [1]: 13%

O=C1CN2c3c(cccc3[C@@H]3CN(CCCCOc4ccc(F)cc4)CC[C@@H]32)N1
inhibition [1]: 39%

O=C1CN2c3c(cccc3[C@@H]3CN(CCCOc4ccc(F)cc4)CC[C@@H]32)N1
Activity (Mus musculus [3]): Dose-Dependent Effect
Activity (Mus musculus [4]): Dose-Dependent Effect
Activity (Mus musculus [5]): Active
Activity (Mus musculus [6]): Active
Activity (Mus musculus [7]): inactive
Activity (Mus musculus [8]): Active
Activity (Mus musculus [9]): Active
Activity (Mus musculus [10]): Dose-Dependent Effect
Emax [11]: 22%

O=C1CN2c3c(cccc3[C@@H]3CN(CCCS(=O)(=O)c4ccc(F)cc4)CC[C@@H]32)N1
inhibition [1]: inactive

NC(=O)c1cc(F)ccc1OCCCN1CC[C@H]2[C@@H](C1)c1cccc3c1N2CC(=O)N3
inhibition ([1]; filed as partial agonist): 76%

O=C1CN2c3c(cccc3[C@@H]3CN(CCCOc4ccc(F)c(O)c4)CC[C@@H]32)N1
inhibition [12]: 13%
inhibition [13]: 46%
inhibition [14]: inactive
inhibition [15]: 25%
inhibition [1]: 23%

O=C1CCN2c3c(cccc3[C@@H]3CN(CCCOc4ccc(F)cc4)CC[C@@H]32)N1
inhibition [1]: 38%

CC1C(=O)Nc2cccc3c2N1[C@H]1CCN(CCCOc2ccc(F)cc2)C[C@@H]31 (stereo not given in full)
inhibition ([1]; filed as partial agonist): 40%

O=C1CN2c3c(cccc3[C@@H]3CN(CCCOc4ccccc4F)CC[C@@H]32)N1
inhibition [1]: 33%

CN(CCCN1CC[C@H]2[C@@H](C1)c1cccc3c1N2CC(=O)N3)c1ccc(F)cc1
inhibition [1]: 22%

O=C1CN2c3c(cccc3[C@@H]3CN(CCCOc4ccc(F)cc4O)CC[C@@H]32)N1
inhibition [12]: 5%
inhibition [13]: 70%
inhibition ([14]; filed as antagonist): 45%
inhibition [15]: 22%
inhibition [1]: 22%

O=C1CN2c3c(cccc3[C@@H]3CN(CCCO)CC[C@@H]32)N1
inhibition [1]: 11%

O=C1CN2c3c(cccc3[C@@H]3CN(CCCOc4ccc(OCc5ccccc5)cc4)CC[C@@H]32)N1
inhibition ([1]; filed as partial agonist): 56%

O=C1CN2c3c(cccc3[C@@H]3CN(CCCOc4ccc(F)cc4F)CC[C@@H]32)N1
inhibition [12]: inactive
inhibition [13]: 85%
inhibition [14]: 36%
inhibition [15]: 21%
inhibition ([1]; filed as partial agonist): 61%

O=C1CN2c3c(cccc3[C@@H]3CN(CCOc4ccc(F)cc4)CC[C@@H]32)N1
inhibition [1]: 30%

O=C1CN2c3c(cccc3[C@@H]3CN(CCCOc4ccccc4)CC[C@@H]32)N1
inhibition ([1]; filed as partial agonist): 61%

O=C1CN2c3c(cccc3[C@@H]3CN(CCCSc4ccc(F)cc4)CC[C@@H]32)N1
inhibition ([1]; filed as partial agonist): 73%

COc1ccc(OCCCN2CC[C@H]3[C@@H](C2)c2cccc4c2N3CC(=O)N4)cc1
inhibition [1]: inactive

CC1(C)C(=O)Nc2cccc3c2N1[C@H]1CCN(CCCOc2ccc(F)cc2)C[C@@H]31
inhibition [12]: inactive
inhibition [13]: 89%
inhibition ([14]; filed as antagonist): 57%
inhibition [15]: 27%
inhibition [1]: 8%

CCCCN1CC[C@H]2[C@@H](C1)c1cccc3c1N2CC(=O)N3
inhibition [1]: inactive

Cc1ccc(OCCCN2CC[C@H]3[C@@H](C2)c2cccc4c2N3CC(=O)N4)cc1
inhibition ([1]; filed as partial agonist): 53%

O=C1CN2c3c(cccc3[C@@H]3CN(CCCOc4cccc(F)c4)CC[C@@H]32)N1
inhibition ([1]; filed as partial agonist): 72%

O=C1CN2c3c(cccc3[C@@H]3CN(CCCOc4ccc(Br)cc4)CC[C@@H]32)N1
inhibition ([1]; filed as partial agonist): 90%

— ChEMBL document CHEMBL5506064, “Discovery of ITI-333, a Novel Orally Bioavailable Molecule Targeting Multiple Receptors for the Treatment of Pain and Other Disorders” (J Med Chem, 2024)
